We go through 51 molecules from PubChem BioAssay AID624038 (The Scripps Research Institute Molecular Screening Center, 2012).

By UniProt entry, the sequences of proteins in these tests, tags left out.
UniProt P08912, whole entry: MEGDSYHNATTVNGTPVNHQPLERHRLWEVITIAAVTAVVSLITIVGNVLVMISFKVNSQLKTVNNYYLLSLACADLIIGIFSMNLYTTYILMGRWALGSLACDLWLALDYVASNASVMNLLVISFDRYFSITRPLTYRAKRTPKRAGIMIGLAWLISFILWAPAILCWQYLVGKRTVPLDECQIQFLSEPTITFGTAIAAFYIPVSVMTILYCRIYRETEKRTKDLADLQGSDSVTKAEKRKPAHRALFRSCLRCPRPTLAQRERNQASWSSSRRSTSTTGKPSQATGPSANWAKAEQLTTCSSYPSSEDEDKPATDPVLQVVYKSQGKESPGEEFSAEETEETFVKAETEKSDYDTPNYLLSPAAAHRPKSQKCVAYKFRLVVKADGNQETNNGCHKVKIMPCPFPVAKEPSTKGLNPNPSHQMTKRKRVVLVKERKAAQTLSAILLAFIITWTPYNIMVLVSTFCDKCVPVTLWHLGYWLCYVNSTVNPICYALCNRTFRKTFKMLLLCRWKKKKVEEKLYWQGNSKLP

The list shows a part of the results, in another mix than the full data. Some salts and complexes are drawn in separate pieces, as the source files them; their charges need not balance. Activity calls are given as the source filed them.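 How the source made its calls: active means activation above the run cutoff, the mean activation of all test compounds plus 3 SD (cut at about 18% in these data); inactive means the rest.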

The target of this experiment is Muscarinic acetylcholine receptor M5 (Homo sapiens) (UniProt P08912). Put plainly: CHRM5 PAMs potentiating acetylcholine calcium signal – CHO-K1 cells, Fluo-8 calcium fluorescence, primary screen (AID 624038). The following applies: CHO-K1 hM5, Fluo-8 calcium, ACh EC20 PAM; at 3 µM; hits give high values; 0% = ACh EC20, 100% = ACh EC100.
`CCOP(C)(=S)SCC(=O)NC(C)(CC)C(=O)O` (stereo unspecified): the activation is inactive: 6.83%.
Regarding `CP(=O)(Nc1ccc(SC(F)(F)F)cc1)Oc1ccc(F)cc1` (stereo unspecified), the activation is inactive: -9.72%.
As to `Cc1c(C(c2ccc3c(c2)OCO3)c2c(C)n(C)n(-c3ccccc3)c2=O)c(=O)n(-c2ccccc2)n1C.O=[N+]([O-])c1cc([N+](=O)[O-])c(O)c([N+](=O)[O-])c1`, the activation is inactive: -3.69%.
For `O=[N+]([O-])c1ccc(OP2(=O)COCCO2)cc1` (stereo unspecified) the value was inactive: 3.88%.
In the case of `Cc1cc(-c2cccc3ccccc23)c(C)cn1.O=[N+]([O-])c1cc([N+](=O)[O-])c(O)c([N+](=O)[O-])c1`, the activation is inactive: 2.61%.
To `O=[N+]([O-])c1cc([N+](=O)[O-])c(NCC2CCS(=O)(=O)C2)c([N+](=O)[O-])c1` (stereo unspecified) belongs inactive: 6.9%; to `CN(C)CCOC(=O)C(O)(c1ccccc1)C1CCCCC1` (stereo unspecified), inactive: -25.5%.
For `COc1ccc(NP(C)(=O)Oc2ccccc2OC)cc1` (stereo unspecified) the value was inactive: -12%; for `COc1ccc(OP(C)(=O)Nc2cccc(Br)c2)cc1` (stereo unspecified), inactive: -3.51%.
For `CN(C)C1(CNC(=O)c2ccc(Cl)c(S(N)(=O)=O)c2)CCCCC1` the value was inactive: -0.69%; for `CP(=O)(Nc1ccccc1)Oc1ccc(F)cc1` (stereo unspecified), inactive: -0.02%; for `CCCCCOc1ccc(NP(C)(=O)Oc2ccc(Cl)cc2Cl)cc1` (stereo unspecified), inactive: 12.7%.
On to `O=[N+]([O-])c1cc([N+](=O)[O-])c(OC2CCCCC2O)c([N+](=O)[O-])c1` (stereo unspecified), for which the activation is inactive: 8.04%.
For `Cc1c([N+](=O)[O-])cc([N+](=O)[O-])c(Br)c1[N+](=O)[O-]` the value was inactive: -1.08%; for `CCN(CC)CCCOC(=O)C(O)(c1ccccc1)C1CCCCC1` (stereo unspecified), inactive: -55.5%; for `CCOC(=O)c1ccc(NP(C)(=O)Oc2ccc(F)cc2)cc1` (stereo unspecified), inactive: -3.23%.
For `COc1ccc(OP(C)(=O)Nc2ccc(SC(F)(F)F)cc2)cc1` (stereo unspecified) the value was inactive: 0.84%; for `CCN(CC)CCCNc1ccccc1[N+](=O)[O-].O=[N+]([O-])c1cc([N+](=O)[O-])c(O)c([N+](=O)[O-])c1`, inactive: -9.87%.
As for `COc1ccc2c(c1O)-c1c(O)c(OC)cc3c1[C@H](C2)[N+](C)(C)CC3.O=[N+]([O-])c1cc([N+](=O)[O-])c([O-])c([N+](=O)[O-])c1[O-]`, the activation is inactive: -3.5%.
Take `O=C(OC1CN2CCC1CC2)c1ccc([N+](=O)[O-])cc1` (stereo unspecified): the activation was inactive: 3.12%.
For `O=C(OCCN1CCN(CCOCc2ccccc2)CC1)C(O)(c1ccccc1)c1ccccc1` the value was inactive: -21.4%; for `CP(=O)(Nc1ccccc1F)Oc1ccccc1` (stereo unspecified), inactive: 0.62%; for `CC(C)c1ccc(OP(C)(=O)Nc2ccc(SC(F)(F)F)cc2)cc1` (stereo unspecified), inactive: -12.8%.
For `O=[N+]([O-])c1cc([N+](=O)[O-])c(Nc2ccc(Cl)cc2)c([N+](=O)[O-])c1` the value was inactive: -15.2%.
Consider `COc1ccccc1OP(C)(=O)Nc1ccc(C)cc1C` (stereo unspecified), for which the activation is inactive: 5.24%.
To `CP(=O)(Nc1ccccn1)Oc1ccccc1` (stereo unspecified) belongs inactive: 6.32%; to `CCc1ccc(OP(C)(=O)O)cc1`, inactive: 4.34%.
To `Cc1c(NP(C)(=O)Oc2ccc(C(C)C)cc2)c(=O)n(-c2ccccc2)n1C` (stereo unspecified) belongs inactive: -3.81%; to `O=[N+]([O-])c1cc([N+](=O)[O-])c(Nc2ccccn2)c([N+](=O)[O-])c1`, inactive: -7.68%; to `COc1ccc(OP(C)(=O)Nc2ccccn2)cc1` (stereo unspecified), inactive: 6.38%.
On to `CN(C)CCOC(=O)C(O)(c1ccccc1)C1CCCC1` (stereo unspecified), for which the activation was inactive: -23.2%.
For `COc1ccccc1OP(C)(=O)Nc1ccc(Br)cc1` (stereo unspecified) the value was inactive: -1.99%; for `CCCCCCCCCCCCCCCC1C[N+](C)(C)CCOP(C)(=O)O1` (stereo unspecified), inactive: -42%; for `CP(=O)(Nc1ccc(Cl)cc1Cl)Oc1ccccc1` (stereo unspecified), inactive: 10.2%.
To `CP(=O)(OCCOc1ccccc1)OCCOc1ccccc1` belongs inactive: 5.37%.
To `COc1ccccc1OP(C)(=O)Nc1ccc(C)c(C)c1` (stereo unspecified) belongs inactive: -0.91%.
In the case of `COc1ccc(OP(C)(=O)Nc2ccccc2Br)cc1` (stereo unspecified), the activation is inactive: -1.22%.
To `Cc1cc(C)cc(OP(C)(=O)Nc2cccc(C(F)(F)F)c2)c1` (stereo unspecified) belongs inactive: 2.38%; to `O=C1C(O)=C([N+](=O)[O-])C(=O)C(O)=C1[N+](=O)[O-]`, inactive: 4.8%; to `CCOC(=O)c1ccc(NP(C)(=O)Oc2ccc(Cl)cc2)cc1` (stereo unspecified), inactive: 0.64%.
To `CP(=O)(OC12CC3CC(CC(C3)C1)C2)OC12CC3CC(CC(C3)C1)C2` belongs inactive: -4.54%.
To `CN(C)C(=O)c1c([N+](=O)[O-])cc([N+](=O)[O-])cc1[N+](=O)[O-]` belongs inactive: -3.79%; to `COc1ccccc1OP(C)(=O)Nc1ccccc1Br` (stereo unspecified), inactive: 1.18%.
In the case of `CC(C)(C)c1ccc(OP(C)(=O)O)cc1`, the activation is inactive: 0.6%.
For `CP(=O)(Nc1ccc(Cl)cc1)Oc1ccc(F)cc1` (stereo unspecified) the value was inactive: -5.37%; for `O=C(OCCCN1CCCC1)C(O)(c1ccccc1)C1CCCCC1` (stereo unspecified), inactive: -36.2%; for `COc1ccccc1OP(C)(=O)Nc1c(C)n(C)n(-c2ccccc2)c1=O` (stereo unspecified), inactive: 1.7%.
For `CCc1ccc(OP(C)(=O)Nc2cccnc2)cc1` (stereo unspecified) the value was inactive: 12.7%; for `CP(=O)(Oc1ccccc1)N1CCOC1=O` (stereo unspecified), inactive: -0.14%.
To `COc1ccc(OP(C)(=O)Nc2ccc(Br)cc2)cc1` (stereo unspecified) belongs inactive: -4.16%; to `CCN(CC)CC(O)COC(=O)C(O)(c1ccccc1)C1CCCCC1` (stereo unspecified), inactive: -49.4%.
